# Assay results from US20010046996A1, “Use of a compound for preparing a drug” (priority 2000, published 2001).
# Tested on: Lewis rats
# Assay: EAE (experimental autoimmune encephalomyelitis) rat model for MS, clinical score
# Assay type: in vivo
# Details: FIG. 1; B-220 daily 6 mg/animal; Interferon-beta daily 3×10^5 U/animal; versus negative control
molecule,measurement,value
"Interferon-beta: Interferon-beta (trademarks Avonex and Betaseron), drug used with the aim to cure or delay the MS disease (protein, UniProt P01574 22-187, looked up) Interferon beta: MSYNLLGFLQRSSNFQCQKLLWQLNGRLEYCLKDRMNFDIPEEIKQLQQFQKEDAALTIYEMLQNIFAIFRQDSSSTGWNETIVENLLANVYHQINHLKTVLEEKLEKEDFTRGKLMSSLHLKRYYGRILHYLKAKEYSHCAWTIVRVEILRNFYFINRLTGYLRN",reduction of the CNS symptoms (clinical score),no reducing effect
